Test results from PubChem BioAssay AID602163 (The Scripps Research Institute Molecular Screening Center, 2012).
This is a selection; strong and weak results do not stand in their true shares. Active and inactive are the calls of the source. Rule as the data show it: active = activation above about 7.5%; inactive = the rest.

System: Methionine sulfoxide reductase A (Bos taurus)
Assay: activation of methionine sulfoxide reductase A – biochemical, absorbance, bovine, HTS, primary screen (AID 602163);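 also: 0% = vehicle and 100% = reference activator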
Conditions: purified bovine MsrA, absorbance read-out; at 10.6 µM; active compounds read high

| Structure (SMILES) | activation |
| --- | --- |
| COc1ccc(OP(C)(=O)Nc2ccc(Br)cc2)cc1 (centres undefined) | inactive: -1.46% |
| CCN(CC)CC(O)COC(=O)C(O)(c1ccccc1)C1CCCCC1 (centres undefined) | inactive: -1.41% |
| CCOC(=O)c1ccc(NP(C)(=O)Oc2ccc(Cl)cc2)cc1 (centres undefined) | inactive: -1.61% |
| CP(=O)(OC12CC3CC(CC(C3)C1)C2)OC12CC3CC(CC(C3)C1)C2 | inactive: -1% |
| CP(=O)(Nc1ccccc1Br)Oc1ccccc1 (centres undefined) | inactive: -3.08% |
| COc1ccccc1OP(C)(=O)Nc1ccccc1 (centres undefined) | inactive: -4.29% |
| CP(=S)(Nn1cnnc1)Oc1ccccc1 (centres undefined) | inactive: -11.4% |
| CP(=O)(Nc1ccccn1)Oc1ccc(Cl)cc1 (centres undefined) | inactive: -6.26% |
| O=[N+]([O-])c1cc([N+](=O)[O-])c(O)c([N+](=O)[O-])c1.c1ccc(Oc2ccncc2)cc1 | inactive: -1.97% |
| CCOC(=O)c1ccc(NP(C)(=O)Oc2ccc(OC)cc2)cc1 (centres undefined) | inactive: 1.06% |
| CCOP(C)(=S)SCC(=O)NC(C)C(=O)O (centres undefined) | inactive: -4% |
| Cc1cc(C)cc(OP(C)(=O)Nc2ccc(SC(F)(F)F)cc2)c1 (centres undefined) | inactive: -8.82% |
| CCc1ccc(OP(C)(=O)N2CCN(c3ccc([N+](=O)[O-])cc3)CC2)cc1 (centres undefined) | inactive: 0.09% |
| CP(=O)(NC(=O)Nc1ccccc1)Oc1ccccc1 (centres undefined) | inactive: -10.4% |
| CP(=O)(Oc1ccccc1)OC(c1ccccc1)C(F)(F)F (centres undefined) | inactive: -1.73% |
| CP(=O)(Nc1ccc(SC(F)(F)F)cc1)Oc1ccc(Cl)cc1 (centres undefined) | inactive: -0.83% |
| Cc1cccc(C)c1OP(C)(=O)Nc1ccc(SC(F)(F)F)cc1 (centres undefined) | inactive: 0% |
| Cc1ccc(Nc2c([N+](=O)[O-])cc([N+](=O)[O-])cc2[N+](=O)[O-])cc1 | inactive: 1.76% |
| COc1ccccc1-c1ccccn1.O=[N+]([O-])c1cc([N+](=O)[O-])c(O)c([N+](=O)[O-])c1 | inactive: -7.38% |
| CCN(CC)CCCOC(=O)C(O)(c1ccccc1)c1ccccc1 | inactive: -7.61% |
| Cc1cc(C)cc(OP(C)(N)=O)c1 (centres undefined) | inactive: -1.48% |
| COc1ccc(OP(C)(=O)Nc2cccc(F)c2)cc1 (centres undefined) | inactive: 0.1% |
| COc1ccccc1OP(C)(=O)Nc1cc(Cl)ccc1C (centres undefined) | inactive: -3.18% |
| Cc1ccc(NP(C)(=O)Oc2ccccc2)c(C)c1 (centres undefined) | inactive: -3.59% |
| COc1ccccc1OP(C)(=O)Nc1ccc(C)cc1 (centres undefined) | inactive: -7.19% |

| Structure (SMILES) | activation |
| --- | --- |
| CCOC(=O)c1ccc(NP(C)(=O)Oc2ccccc2)cc1 (centres undefined) | inactive: -4.74% |
| O=[N+]([O-])c1ccc2c(c1)C=Nc1ccccc1O2 | inactive: -13% |
| Cc1cccc(C)c1OP(C)(N)=O (centres undefined) | inactive: -6.34% |
| CC(C)(C)c1ccc(OP(C)(=O)Nc2ccc(SC(F)(F)F)cc2)cc1 (centres undefined) | inactive: -0.22% |
| O=[N+]([O-])c1cc([N+](=O)[O-])c(Nc2cccnc2)c([N+](=O)[O-])c1 | inactive: 1.02% |
| CC1=NCCc2c1[nH]c1ccccc21.O=[N+]([O-])c1cc([N+](=O)[O-])c(O)c([N+](=O)[O-])c1 | inactive: -3.73% |
| O=C(O)c1cccc(Nc2c([N+](=O)[O-])cc([N+](=O)[O-])cc2[N+](=O)[O-])c1 | inactive: -2.92% |
| Cc1ccc(C)c(NP(C)(=O)Oc2ccccc2)c1 (centres undefined) | inactive: -10.9% |
| CP(=O)(Nc1cccc(Br)c1)Oc1ccccc1 (centres undefined) | inactive: -1.59% |
| Cc1cc(C)cc(OP(C)(=O)Nc2ccccn2)c1 (centres undefined) | inactive: -8.78% |
| CCOC(=O)c1ccc(NP(C)(=O)Oc2cc(C)cc(C)c2)cc1 (centres undefined) | inactive: -1.74% |
| Cc1cc(C)cc(OP(C)(=O)Nc2ccc(C)cc2C)c1 (centres undefined) | inactive: 2.25% |
| COc1ccccc1OP(C)(=O)Nc1cccc(Br)c1 (centres undefined) | inactive: -1.09% |
| Cc1nc2ccc3ccccc3c2s1.O=[N+]([O-])c1cc([N+](=O)[O-])c(O)c([N+](=O)[O-])c1 | inactive: -4.24% |
| O=[N+]([O-])c1cc([N+](=O)[O-])c(-c2cnn(-c3ccccc3)c2)c([N+](=O)[O-])c1 | active: 8.6% |
| CN(Cc1cccnc1)C(=O)COc1ccc(Cl)c(Cl)c1.O=[N+]([O-])c1cc([N+](=O)[O-])c(O)c([N+](=O)[O-])c1 | inactive: -17.7% |
| O=[N+]([O-])c1cc([N+](=O)[O-])c(-n2nnc3ccccc32)c([N+](=O)[O-])c1 | inactive: -7.67% |
| COc1ccc(-c2ccccn2)cc1.O=[N+]([O-])c1cc([N+](=O)[O-])c(O)c([N+](=O)[O-])c1 | inactive: -6.23% |
| CP(=O)(Nc1ccc(SC(F)(F)F)cc1)Oc1ccccc1 (centres undefined) | inactive: -3.32% |
| CCCOc1ccc(NP(C)(=O)Oc2ccc(Cl)cc2)cc1 (centres undefined) | inactive: -1.79% |
| CN1CCCCC1COC(=O)C1(O)c2ccccc2CCc2ccccc21 (centres undefined) | inactive: -12.9% |
| COc1ccccc1OP(C)(=O)Nc1c(C)cccc1C (centres undefined) | inactive: 0.86% |
| CCOC(=O)C(CC)C1=NC(C)(C)Cc2ccccc21.O=[N+]([O-])c1cc([N+](=O)[O-])c(O)c([N+](=O)[O-])c1 (centres undefined) | inactive: -2.29% |
| O=[N+]([O-])c1cc([N+](=O)[O-])c(Nc2nnnn2CCO)c([N+](=O)[O-])c1 | inactive: 2.12% |
